The values that follow are results of earlier work, collected in patent publication US11208696B2, “Prognostic biomarkers for TTK inhibitor chemotherapy” (NETHERLANDS TRANSLATIONAL RESEARCH CENTER B.V., priority 2015, dated 2021).

Each structure is given as a SMILES string. A value given as a limit tells only on which side of the number the result lay.

The subject of the data set is panel of 127 cancer cell lines. To be noted: read-out: IC50s, inhibition of proliferation, close to 1 μM or higher; cited from earlier work.

`CCc1cccc(CC)c1NC(=O)c1nn(C)c2c1CCc1cnc(Nc3ccc(C(=O)NC4CCN(C)CC4)cc3OC(F)(F)F)nc1-2` [NMS-P715]: the IC50 was not below 1000 nM.
